## Apparent affinities of Ab-14 variants for a coronavirus HR2 peptide

Target: peptide PDVDLGDISGINAS, taken from heptad repeat 2 (HR2) of SARS-CoV-2 spike.

Parent scFv Ab-14: VH joined to VL by a 15-residue (Gly4Ser)3 linker. Changes lie in the light chain CDRs alone.
VH: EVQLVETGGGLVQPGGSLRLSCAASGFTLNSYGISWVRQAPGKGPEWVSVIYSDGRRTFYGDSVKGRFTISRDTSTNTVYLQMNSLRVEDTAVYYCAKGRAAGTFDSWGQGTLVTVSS
VL: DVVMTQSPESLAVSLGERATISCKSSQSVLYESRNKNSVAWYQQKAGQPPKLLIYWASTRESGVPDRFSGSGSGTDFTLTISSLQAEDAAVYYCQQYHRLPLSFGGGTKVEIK

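Phage display of a naive human antibody library on the peptide gave the parent. This is the validation round: designs drawn from the data on random variants, tested in the same kind of assay. Several design methods are mixed in this list. Affinity was read by AlphaSeq, a pooled yeast mating assay with surface-displayed partners. Pairs that bind mate more often; barcode pairs of the diploids are counted by sequencing. A regression on co-assayed BCL2-family reference pairs converts the normalised counts of each replicate to an apparent Kd. There are six technical replicates.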

The parent's light chain CDRs are KSSQSVLYESRNKNSVA, WASTRES, QQYHRLPLS; each variant's own CDRs replace them letter for letter. Variants here have at most six changes. Numbers give log10(Kd / nM), so 0 is 1 nM and 3 is 1 µM. Smaller is tighter. Averages over replicates are reported, and they cover detected replicates only. Where no diploid with the target was found in any replicate, the entry reads "no signal": below detection, most likely a poor binder, though not proof of it. Background: pairings of all light chain designs with three empty control strains gave a value in 4% of cases (median 2.64, 5th percentile 1.59). Values in that range, when seen in few replicates, are hard to tell from nonspecific mating. Of ten entries with the parent sequence, four were seen in most replicates (averages 0.34 to 2.37), three in one and three in none, so single entries are noisy. The range of this assay differs from that of the first round, and the authors advise against merging the two. The authors' rule: three or more of the six replicates give a measured affinity, fewer mean a poor binder.

KLSMSVLMESRNKNSVA, EASTRES, QQYHRLPLS: -0.14 (6 of 6 replicates).
KFSQSVLYEDRNKNSVA, NASTRES, QQYHRLPLS: 0.54 (6 of 6 replicates).
KLEQSVLYESRNKNSVA, NASQRLS, QQYHRLPLS: -0.11 (6 of 6 replicates).
KISFSVLYESRNKNNVA, WASTRES, QQYHRLPLS: 1.63 (6 of 6 replicates).
KSSQDVLRESLNKNAVA, WASTRES, QQYHRLPLS: 1.95 (4 of 6 replicates).
HVSTSVLYESRNKNNVA, NASTRES, QQYHRLPLS: -0.41 (6 of 6 replicates).
KLPQSMEYESRNKNSVA, SASTRES, QQYHRLPLS: -0.12 (6 of 6 replicates).
KLRMSLLYESRNKNSVA, WASTRES, QQYHRLPLS: 1.00 (6 of 6 replicates).
KLSQSVLYEDRNKNSVA, HASTRES, QQYHRLPLS: -0.32 (6 of 6 replicates).
ALMQSVLYESRNKNSVA, HASLRED, QQYHRLPLS: 0.24 (6 of 6 replicates).
KSGQGELYESRNKNSVA, GASQRWS, QQYHRLPLS: -0.01 (6 of 6 replicates).
KSSASYLYESRNKNSVA, AASTRES, QQYHRLPLS: -0.02 (6 of 6 replicates).
HLSQSVLYESRNKNSVA, NASQRLS, QQYHRLPLS: -0.18 (6 of 6 replicates).
KSSQSVLVESRNANSVA, WASTRES, QQYHRLPLS: 1.24 (6 of 6 replicates).
KVSQSVLYESRNKNCVA, WASTRES, QQYSRLPLS: 1.69 (6 of 6 replicates).
KSDQSVLFESRNKPSVA, EASVRES, QQYHRLPLS: 0.79 (6 of 6 replicates).
KLEQSVQYESRNKNSVA, NASTRES, QQYHRLPLS: -0.26 (6 of 6 replicates).
KSSQSVLYESRNKFSVA, WASTRIS, FQYHRLPLS: no signal (0 of 6 replicates).
DSWQSVLYESRNKNSVA, NASTRES, VQYHRLPLS: no signal (0 of 6 replicates).
KSSQSVLQESDNKNSVA, WASTRES, QQYHRLPLS: 0.65 (6 of 6 replicates).
KSSQSQLYESRNKNNVA, QASTRES, QQYHRLPLS: no signal (0 of 6 replicates).
KYSKSLLYESRNKNSVA, WASTCES, QQYHRLPLS: no signal (0 of 6 replicates).
KLSASELYESRNKNSVA, EASTRES, QQYHRLPLS: -0.17 (6 of 6 replicates).
KLSQSELYESRNQNSVA, GASTRLE, QQYHRLPLS: -0.34 (6 of 6 replicates).
KSSISYLYESRNKKSRA, EFSTRES, QQYHRLPLS: no signal (0 of 6 replicates).
KLQQSVEYESRNKNSVA, NASTREV, QQYHRLPLS: 0.20 (6 of 6 replicates).
KISQSVLYESRNKNSVA, DASTRYS, QQYHRLPLS: -0.26 (6 of 6 replicates).
KSSQSVLYEYRNKNSVA, WASTRIS, QQYHRSPLS: no signal (0 of 6 replicates).
KFQQSQLYESRNKNSVA, NASQRLS, QQYHRLPLS: -0.16 (6 of 6 replicates).
KLCQSVLYESRNKNSVA, HASTRED, QQYHRLPLS: 0.00 (6 of 6 replicates).
KVSISYLLESRNKNSVA, EANTRES, QQYHRLPLS: -0.10 (6 of 6 replicates).
KLRQSTLYESRNKNSVA, WASTRES, QQWHRLPLS: 0.59 (6 of 6 replicates).
KLPQSVLYESRNSNSVA, NASTRES, QQYHRLPLS: 0.01 (6 of 6 replicates).
KVSPSYLYESRNKNSVA, DASTRES, QQYHRLPLS: -0.06 (6 of 6 replicates).
KISQSVLYESREDNSVA, SASTRES, QQYHRLPLS: 0.01 (6 of 6 replicates).
KISQSFLYESRNKNSVA, GASTRES, QNYHRLPLS: 0.41 (6 of 6 replicates).
KLSGSDLYESRNKNSVA, NASTRES, QQYHRLPLS: -0.55 (6 of 6 replicates).
KSSQDVLYESRNKNSVA, WAVTREV, QQYYRLPLW: 0.79 (6 of 6 replicates).
KLSQSVLYESRNKNSVA, NASTRCK, QQYHRLPLS: 0.13 (6 of 6 replicates).

For reference, 6 entries of the list once more:

The variant KSSQSVLYEYRNKNSVA, WASTRIS, QQYHRSPLS showed no signal (0 of 6 replicates).
The variant KLQQSVEYESRNKNSVA, NASTREV, QQYHRLPLS showed 0.20 (6 of 6 replicates).
The variant HVSTSVLYESRNKNNVA, NASTRES, QQYHRLPLS showed -0.41 (6 of 6 replicates).
The variant KSSQDVLYESRNKNSVA, WAVTREV, QQYYRLPLW showed 0.79 (6 of 6 replicates).
The variant KISQSVLYESREDNSVA, SASTRES, QQYHRLPLS showed 0.01 (6 of 6 replicates).
The variant KISQSFLYESRNKNSVA, GASTRES, QNYHRLPLS showed 0.41 (6 of 6 replicates).

Data: MIT Lincoln Laboratory AlphaSeq set, Li et al. 2023, doi:10.1038/s41467-023-39022-2, as distributed in FLAb.